This is an account of results in article PMC6038798, “Dissecting how modular polyketide synthase ketoreductases interact with acyl carrier protein-attached substrates” (Chemical Communications (Cambridge, England), 2017).

For test [1], the target named is mKRa, A1-type ketoreductase (KR) domain from module 5 of MLSA1 of the mycolactone polyketide synthase (Mycobacterium ulcerans). Description: ITC; ACP species injected into a solution of the KR domain in the presence of excess NADPH; three repeat experiments. (In ITC the heat of successive injections is recorded.)
For test [2] the target is unchanged. Description: ITC; ACP species titrated against the KR domain in the presence of excess NADP+ (oxidised cofactor); three repeat experiments.

As for holo mACPa (1a) (domain or fragment), in test [1], the Kd is 770 nM and the stoichiometry N came to 1.

In the case of “Acetoacetyl-mACPa (1b) (domain or fragment)”, the Kd in test [2] came out at 430 nM.

As to “apo mACPa, acyl carrier protein domain cognate to mKRa (module 5 of MLSA1), apo form (domain or fragment)”, in test [1], the Kd turned out to be 2500 nM and the stoichiometry N worked out at 1.

As to “apo mACPb, acyl carrier protein domain cognate to mKRb (module 7 of MLSB), apo form (domain or fragment)”, in test [1], the Kd amounted to 1800 nM.

For holo mACPb (1a) (domain or fragment), the Kd in test [1] was 740 nM.

Consider “β-Hydroxybutyryl-mACPa (1c) (domain or fragment)”, for which, in test [1], the Kd was 290 nM.

The term Kd denotes the free concentration of one partner at which half of the binding sites on the other are occupied at equilibrium, for simple one-to-one binding. Broadly, the stoichiometry N is a count of units in the complex or per binding partner.
